From paper PMC10773907 (Frontiers in Pharmacology, 2023) come the findings set out here.

By UniProt entry, the sequences of proteins in these tests, tags left out. Where a name states a change or a piece, a line headed by the entry shows the natural chain unless it says otherwise.
UniProt Q9Y3D6: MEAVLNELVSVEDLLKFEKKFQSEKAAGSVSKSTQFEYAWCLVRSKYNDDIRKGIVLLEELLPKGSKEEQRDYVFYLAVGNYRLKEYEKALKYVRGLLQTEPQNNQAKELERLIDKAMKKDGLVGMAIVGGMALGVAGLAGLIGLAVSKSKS

In the experiment the target is T1, mitochondrial fission 1 protein (Fis1), recombinant, as used in the field-effect biosensing assays (human, UniProt Q9Y3D6 1-152).
T1 construct: Fis1; also called hFis1; source: E. coli Rosetta, purified (Ni-NTA)
Description: field-effect biosensing (FEB, AGILE Dev Kit); protein (500 nM) cross-linked by EDC/sulfo-NHS to the graphene biosensor chip, peptide as analyte in a series of concentrations, PBS pH 7.4, room temperature, KD from a Hill fit, n = 3. Conditions: both partners purified.

B1: CVP-235 (peptide)
peptide: NRDMKTGL
modifications: N-terminal acetyl
notes: stretch of Mid51 (peptide derived from Mid51); overlaps CVP-233 by four residues; Made on Rink amide MBHA resin, so the C-terminus is probably an amide; source: synthetic peptide
For B1, the Kd – broadly, the free concentration of one partner at which half of the binding sites on the other are occupied at equilibrium, for simple one-to-one binding – was 3.88 mM.
